The experiment has as its system human leucocyte antigen (HLA) class I molecule. The experiment can be described thus: CTL assay: lysis of 51-chromium labelled, HLA-matched B lymphoblastoid target cells sensitized with peptide. The format is cell-based. On the procedure: Peptides in accordance with the invention can also be used for diagnostic purposes. […] Briefly, fresh peripheral blood mononuclear cells (or lymphocytes obtained from biopsy material) are prepared and added at ratios of 50:1, 25:1 and 10:1 to 10^4 51 -chromium labelled B lymphoblastoid cells matched for the relevant HLA molecules. The HLA type of patient is determined in known manner by tissue typing, and B lymphoblastoid cells obtained from a donor of known HLA type (again determined in known manner by tissue typing) and transformed with Epstein Barr using known techniques. A peptide in accordance with the invention, which interacts with the relevant HLA molecule, is also added to the cells in a concentration of 10 to 100 u molar. After 4 hours incubation the supernatant is removed and the released ^51 -chromium measured. The ^51 -chromium released is compared to that released by incubation of labelled cells in detergent, which gives a maximum value, and released by labelled cells incubated in medium alone, which gives a minimum value. If lysis (defined by ^51 -chromium released of at least two times the minimum value) is observed it means that there are cytotoxic T lymphocytes in the patients' mononuclear cells and these are likely to be indicative of infection with HIV.

For `CC[C@H](C)[C@H](NC(=O)[C@H](Cc1c[nH]cn1)NC(=O)[C@H](CCCCN)NC(=O)[C@H](CC(C)C)NC(=O)[C@H](CCCCN)NC(=O)[C@H](Cc1ccc(O)cc1)NC(=O)[C@H](CCCCN)NC(=O)[C@H](CCCCN)NC(=O)[C@H](CCCCN)NC(=O)CNC(=O)CNC(=O)[C@@H]1CCCN1C(=O)[C@H](CCCNC(=N)N)NC(=O)[C@H](CC(C)C)NC(=O)[C@@H](N)CS)C(=O)N[C@H](C(=O)O)C(C)C` [p17-3, NH2 -cysteine-leucine-arginine-proline-glycine-glycine-lysine-lysine-lysine-tyrosine-lysine -leucine-lysine-histidine-isoleucine-valine-COOH], the “HLA class I molecule with which the peptide interacts specifically” value is recorded as “HLA B8”.
The same measure, in the same setting: then `CC(C)C[C@H](NC(=O)[C@@H](NC(=O)[C@H](C)NC(=O)[C@@H](NC(=O)[C@@H](NC(=O)[C@H](CC(N)=O)NC(=O)[C@H](Cc1ccc(O)cc1)NC(=O)[C@H](CC(C)C)NC(=O)[C@H](CO)NC(=O)[C@H](CCCNC(=N)N)NC(=O)[C@H](CC(C)C)NC(=O)[C@H](CCC(=O)O)NC(=O)[C@H](CCC(=O)O)NC(=O)[C@H](CO)NC(=O)CNC(=O)[C@@H](N)CS)[C@@H](C)O)C(C)C)[C@@H](C)O)C(=O)O` [p17-8, NH2 -cysteine-glycine-serine-glutamic acid-glutamic acid-leucine-arginine-serine-leucine-tyrosine-asparagine-threonine-valine- alanine-threonine-leucine-COOH], with “HLA A2”.
Consider `CC(C)C[C@H](NC(=O)[C@@H](NC(=O)[C@H](CCCCN)NC(=O)[C@H](Cc1ccc(O)cc1)NC(=O)[C@H](Cc1ccccc1)NC(=O)[C@H](CCCNC(=N)N)NC(=O)[C@H](CC(=O)O)NC(=O)[C@@H](NC(=O)[C@H](Cc1ccc(O)cc1)NC(=O)[C@H](CC(=O)O)NC(=O)[C@H](CCCNC(=N)N)NC(=O)[C@@H](N)Cc1ccccc1)C(C)C)[C@@H](C)O)C(=O)N[C@@H](CCCNC(=N)N)C(=O)N[C@@H](C)C(=O)N[C@@H](CCC(=O)O)C(=O)N[C@@H](CS)C(=O)O` [p24-7, NH2-phenylalanine-arginine-aspartic acid-tyrosine-valine-aspartic acid-arginine-phenylalanine-tyrosine-lysine-threonine-leucine-arginine-alanine-glutamic acid-cysteine-COOH], for which, for the setting “HLA restrictions not yet fully worked out”, the “HLA restriction of the peptide (through one or more of the antigens)” value is “HLA-A3 or A29 or B44 or B14”.

For the origin of these results see patent US5700469A, “HIV-1 core protein fragments” (Medical Research Council, priority 1990, dated 1997).
